The text below walks through data of patent US20250122301A1 (IBIO, published 2025).

The experiment addresses T1, CD25 on CD25+ cells (SUDHL-1, HEK IL-2 reporter cells, primary human regulatory T cells) (human, UniProt P01589 22-272).
T1 construct: whole, on cells; also called IL-2Ralpha
T1 sequence (looked up): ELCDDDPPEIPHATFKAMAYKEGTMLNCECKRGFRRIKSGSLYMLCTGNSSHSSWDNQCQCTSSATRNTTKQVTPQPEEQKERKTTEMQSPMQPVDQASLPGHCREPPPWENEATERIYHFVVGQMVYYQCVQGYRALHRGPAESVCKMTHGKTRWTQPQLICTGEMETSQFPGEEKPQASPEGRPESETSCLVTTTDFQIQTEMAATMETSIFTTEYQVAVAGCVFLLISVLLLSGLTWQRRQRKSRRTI
Kind of experiment: flow cytometry, dose response on CD25+ SUDHL-1 cells.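 Note: antibody binding to cells read as median fluorescence intensity of an AF647 anti-human Fc secondary, DAPI+ dead cells excluded, 20 min on ice, 5-fold dilutions from 10 ug/mL.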 Background: Flow cytometry measures light scatter and fluorescence of single cells or particles in a stream.

B1: Basiliximab (antibody, V domains shown)
VH: QVQLQQSGTVLARPGASVKMSCKASGYSFTRYWMHWIKQRPGQGLEWIGAIYPGNSDTSYNQKFEGKAKLTAVTSASTAYMELSSLTHEDSAVYYCSRDYGYYFDFWGQGTTLTVSS
VL: QIVSTQSPAIMSASPGEKVTMTCSASSSRSYMQWYQQKPGTSPKRWIYDTSKLASGVPARFSGSGSGTSYSLTISSMEAEDAATYYCHQRSSYTFGGGTKLEIK
For orientation: EC50 means the concentration that produces a half-maximal response. A higher EC50 goes with lower potency in that assay. Turning to B1, the response was half-maximal at 0.0573 µg/mL (EC50).
